The source of these data is US20090325959A1 (priority 2008, published 2009).

Amino acid sequences for entries named in this document (tags omitted). Residues count along the entry.
UniProt Q9Y243, whole entry: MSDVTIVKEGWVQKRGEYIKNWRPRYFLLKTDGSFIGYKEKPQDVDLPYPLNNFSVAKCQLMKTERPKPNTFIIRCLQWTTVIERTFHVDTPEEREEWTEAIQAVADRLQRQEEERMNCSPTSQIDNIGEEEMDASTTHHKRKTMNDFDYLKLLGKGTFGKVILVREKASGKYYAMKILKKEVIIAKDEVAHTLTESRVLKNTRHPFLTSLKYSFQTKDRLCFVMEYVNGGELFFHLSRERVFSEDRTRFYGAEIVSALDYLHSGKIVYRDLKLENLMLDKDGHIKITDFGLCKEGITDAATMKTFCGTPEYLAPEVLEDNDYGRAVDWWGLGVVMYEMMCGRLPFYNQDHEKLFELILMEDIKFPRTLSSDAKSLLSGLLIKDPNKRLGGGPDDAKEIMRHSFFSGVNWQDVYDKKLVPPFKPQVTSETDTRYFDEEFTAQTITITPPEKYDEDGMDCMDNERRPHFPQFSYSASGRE
UniProt P23443, 1-421 T412E limits assumed: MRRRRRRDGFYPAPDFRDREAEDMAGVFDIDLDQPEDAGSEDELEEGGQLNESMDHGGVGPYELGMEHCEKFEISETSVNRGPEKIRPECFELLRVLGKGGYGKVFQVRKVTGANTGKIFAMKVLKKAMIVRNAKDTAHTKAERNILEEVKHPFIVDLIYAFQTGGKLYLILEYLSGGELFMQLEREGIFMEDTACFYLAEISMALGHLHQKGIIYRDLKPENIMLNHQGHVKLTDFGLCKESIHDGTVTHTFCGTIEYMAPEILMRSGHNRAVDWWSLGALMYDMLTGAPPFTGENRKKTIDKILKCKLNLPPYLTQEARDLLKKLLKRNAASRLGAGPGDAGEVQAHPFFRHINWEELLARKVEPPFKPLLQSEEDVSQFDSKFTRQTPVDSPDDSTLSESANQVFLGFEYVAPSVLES

SMILES strings stand for the structures. Where two headings read alike, the source gives them in different places.

In one assay the target is Akt3 human enzyme (Homo sapiens, UniProt Q9Y243). In words: Akt3 inhibition assay (IMAP FP).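 Also: kinase reaction run 60 min at room temperature after 30 µM ATP start, phosphorylated substrate captured on IMAP beads and read as fluorescence polarization (mP).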 It is filed as biochemical.
A further assay deals with p70S6K human enzyme (Homo sapiens, UniProt P23443, T412E). In words: p70S6K inhibition assay (IMAP FP).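 Also: kinase reaction run at room temperature, phosphorylated substrate captured on IMAP beads and read as fluorescence polarization in mP, IC50 then converted to Ki.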 Type of assay: biochemical.

As a reminder, the Ki is the dissociation constant of the complex between target and ligand, obtained from inhibition or displacement. Regarding `CCc1ccc(CN2CCC[C@@H](Nc3ccc4[nH]ncc4c3)C2)cc1` [Compound 1.136, (R)-N-(1-(4-ethylbenzyl)piperidin-3-yl)-1H-indazol-5-amine], the Ki came to 444 nM on Akt3 human enzyme (read-out: Akt3 Ki, Avg, 30 μM ATP, Ki=IC50/(1+([ATP Challenge]/EC50 ATP))); 444 nM on Akt3 human enzyme (read-out: Akt3 Ki, average Ki); 589 nM on p70S6K human enzyme (read-out: p70S6K Ki, Avg, 30 μM ATP, Ki=IC50/(1+([ATP Challenge]/EC50 ATP))); 589 nM at p70S6K human enzyme (read-out: p70S6K Ki, average Ki).
